We go through 1 compound from patent US8354447B2, “mGLU receptors antagonists for treating disorders associated with mGLU receptors including addiction and depression” (The Scripps Research Institute, priority 2002, dated 2013).

Structures can show the parent of a compound that is named as a salt.

For the assay, the system named is male Wistar rats. The assay is described as follows: Brain stimulation reward (ICSS) under baseline conditions, paroxetine and p-MPPI. Type of assay: in vivo, rat.

On to `Fc1ccc([C@@H]2CCNC[C@H]2COc2ccc3c(c2)OCO3)cc1` [paroxetine, Paroxetine hydrochloride], for which the response latencies result is “had no significant effect on reward thresholds or response latencies at the doses tested” (paroxetine 1.25-10 mg/kg (Example 4.1)) and “increased response latencies” (paroxetine 1.25 or 5 mg/kg (Example 4.2)).
